The numbers were not newly measured in patent publication US20090233840A1, “Modified Dynorphin Expression in Animals and Identification of Compounds for Treatment of Obesity and Diabetes” (priority 2004, published 2009), which cites them from elsewhere.

Sequences of proteins named here, by UniProt entry; tags and fusion partners are left off.
UniProt P35372, whole entry: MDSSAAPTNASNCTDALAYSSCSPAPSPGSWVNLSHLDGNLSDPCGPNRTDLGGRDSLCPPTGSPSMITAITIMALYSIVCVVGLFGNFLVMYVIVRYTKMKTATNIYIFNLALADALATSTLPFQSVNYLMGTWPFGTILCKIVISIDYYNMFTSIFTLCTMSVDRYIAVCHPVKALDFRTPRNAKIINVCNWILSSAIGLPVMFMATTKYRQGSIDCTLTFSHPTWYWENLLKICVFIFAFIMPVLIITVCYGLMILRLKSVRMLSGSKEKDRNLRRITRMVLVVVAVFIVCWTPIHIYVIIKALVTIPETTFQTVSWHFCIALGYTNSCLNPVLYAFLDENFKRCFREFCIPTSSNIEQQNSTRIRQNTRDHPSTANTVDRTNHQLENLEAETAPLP
UniProt P41143, whole entry: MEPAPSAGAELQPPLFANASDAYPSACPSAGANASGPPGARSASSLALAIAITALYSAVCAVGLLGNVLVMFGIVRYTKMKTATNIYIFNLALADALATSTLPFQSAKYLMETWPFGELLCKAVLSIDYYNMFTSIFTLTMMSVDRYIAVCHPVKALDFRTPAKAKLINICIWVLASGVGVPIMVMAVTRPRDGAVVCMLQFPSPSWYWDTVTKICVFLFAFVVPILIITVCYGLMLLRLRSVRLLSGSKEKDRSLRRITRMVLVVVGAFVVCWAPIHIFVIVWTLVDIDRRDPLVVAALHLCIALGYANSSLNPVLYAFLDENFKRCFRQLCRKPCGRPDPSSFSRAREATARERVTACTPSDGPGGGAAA

Data set [1] addresses T1, hMOR-1 (Homo sapiens, UniProt P35372). Particulars: read-out: calculated EC50, K+ current; Xenopus oocytes, hMOR-1 + GIRK1; mean ±S.E., n=2-3.
In data set [2] the target is T1, hMOR-1. Particulars: human MOR-1 receptor.
The target of a further data set is human DOR-1 (Homo sapiens, UniProt P41143). Particulars: DOR-1 receptor.

The term EC50 denotes the concentration at which the effect is half-maximal. For dynorphin A, the EC50 in the data set with hMOR-1 [1] is 30 ± 5 nM. Further, in the data set with hMOR-1 [2], the affinity values result is reported as “nanomolar range”.
As to dynorphin A-(1-8), at human DOR-1, the “affinity compared to dynorphin A” value was “relatively higher affinity”.
